Earlier results, collected in patent publication US20220143123A1, “Prevention of Pathological Coagulation in COVID-19 and other Inflammatory Conditions” (priority 2020, published 2022).

Key:
[1] = tested on: mice with LPS-induced ARDS; details: 10 mg/kg ip 1 h before LPS 10 mg/kg ip; cited from earlier work
[2] = tested on: mice with experimental colitis; details: 50 and 100 mg/kg/day, compared with the MD group; cited from earlier work
[3] = tested on: lipopolysaccharide-activated macrophages; details: 5 and 10 microM, 6-24 hr, versus macrophages without EGCG; cited from earlier work

In the case of epigallocatechin-3-gallate [EGCG], the “LPS-induced ARDS (blood gases, histological lesions, wet-to-dry weight ratios, MPO activity)” value [1] is given as “attenuated LPS-induced ARDS”, the “disease activity index (DAI) and spleen index (SI)” value [2] is given as “decreased DAIs and SIs” and the “iNOS activity in soluble extracts” value [3] is given as “significantly lower”.
